Laboratory results as given in US10723711B2, “1,1,1-trifluoro-3-hydroxypropan-2-yl carbamate derivatives and 1,1,1-trifluoro-4-hydroxybutan-2-yl carbamate derivatives as MAGL inhibitors” (PFIZER INC., priority 2015, dated 2020).

Amino acid sequences for entries named in this document (tags omitted).
UniProt Q99685, whole entry: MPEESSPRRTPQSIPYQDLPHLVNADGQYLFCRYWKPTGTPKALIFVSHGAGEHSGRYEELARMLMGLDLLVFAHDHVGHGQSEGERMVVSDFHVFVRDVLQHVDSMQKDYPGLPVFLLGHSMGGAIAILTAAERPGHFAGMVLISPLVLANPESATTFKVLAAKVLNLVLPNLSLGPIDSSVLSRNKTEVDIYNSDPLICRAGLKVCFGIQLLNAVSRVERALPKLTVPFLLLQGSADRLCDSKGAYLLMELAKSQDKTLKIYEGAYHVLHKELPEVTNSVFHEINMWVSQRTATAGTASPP

Target: human recombinant Monoacylglycerol Lipase (Homo sapiens, UniProt Q99685)
Test: MAGL inhibition enzymatic assay, fluorogenic substrate 7-HCA, IC50 at T=0 min or after 30 minute incubation (T=30 min)
Conditions: geometric mean of 2-4 determinations unless otherwise indicated, tested form: ammonium salt
[1] = read-out: MAGL (T = 0 min) IC50, T = 0 min (substrate added immediately)
[2] = read-out: MAGL (T = 30 min) IC50, T = 30 min (30 minute incubation)

COP(=O)(O)OC[C@@H](OC(=O)N1CCC2(CC1)CN(S(=O)(=O)c1ccc(F)cc1)CCO2)C(F)(F)F
IC50 [1]: > 3 µM | IC50 [2]: 0.818 µM

CCOP(=O)(O)OC[C@@H](OC(=O)N1CCC2(CC1)CN(S(=O)(=O)c1ccc(F)cc1)CCO2)C(F)(F)F
IC50 [1]: 0.198 µM | IC50 [2]: 0.015 µM

Like-named read-outs stand apart in the source and are kept apart here.
